System: Wistar rats
Test: Catalepsy (CAT) measurements on inclined grid in rats
Conditions: idazoxan 1.5 mg/kg s.c.; for CAT rating ± semi-interquartile range: score 0-5, 8 animals per group

**Q.** For `Cc1cc2c(s1)Nc1ccccc1N=C2N1CCN(C)CC1` [olanzapine], which “CAT rating ± semi-interquartile range” value (0.5 hrs after olanzapine 2.5 mg/kg i.p.) is on record?
**A.** 1 ± 2.0

**Q.** And the “CAT rating ± semi-interquartile range” value (1 hr after olanzapine 2.5 mg/kg i.p.)?
**A.** 1.5 ± 2.0

**Q.** What about the “CAT rating ± semi-interquartile range” value (2 hrs after olanzapine 2.5 mg/kg i.p.) of the same compound?
**A.** 1 ± 0.5

**Q.** And the “Catalepsy compared to vehicle treated controls (in words)” value (olanzapine 2.5 mg/kg i.p., alone or in combination)?
**A.** did not produce any significant catalepsy

— patent US20060281735A1, “Antipsychotic combination therapies and compositions of an alpha-2 adrenergic receptor antagonist and an atypical antipsychotic neuroleptic” (priority 2002, published 2006)
